The entries are a selection whose mix differs from that of the whole data set. The source made the active and inactive calls.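 How the source made its calls: active means compound whose remaining NAD level is above about 45 nM (limit read from the data); inactive means the rest.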
Target: NAD(+) hydrolase SARM1 (Homo sapiens) (UniProt Q6SZW1)
Test: SARM1 TIR NADase inhibitors, cell lysate, NAD-Glo luminescence (AID 1508614);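 further: higher remaining NAD means stronger inhibition of SARM1 NADase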
Settings: SAM-TIR HEK293T lysate NADase, at 1 µM

Chains of the proteins cited; added tags and fusions are not shown. Lines headed by an entry give the natural chain unless they say otherwise; changes in a name come on top.
UniProt Q6SZW1: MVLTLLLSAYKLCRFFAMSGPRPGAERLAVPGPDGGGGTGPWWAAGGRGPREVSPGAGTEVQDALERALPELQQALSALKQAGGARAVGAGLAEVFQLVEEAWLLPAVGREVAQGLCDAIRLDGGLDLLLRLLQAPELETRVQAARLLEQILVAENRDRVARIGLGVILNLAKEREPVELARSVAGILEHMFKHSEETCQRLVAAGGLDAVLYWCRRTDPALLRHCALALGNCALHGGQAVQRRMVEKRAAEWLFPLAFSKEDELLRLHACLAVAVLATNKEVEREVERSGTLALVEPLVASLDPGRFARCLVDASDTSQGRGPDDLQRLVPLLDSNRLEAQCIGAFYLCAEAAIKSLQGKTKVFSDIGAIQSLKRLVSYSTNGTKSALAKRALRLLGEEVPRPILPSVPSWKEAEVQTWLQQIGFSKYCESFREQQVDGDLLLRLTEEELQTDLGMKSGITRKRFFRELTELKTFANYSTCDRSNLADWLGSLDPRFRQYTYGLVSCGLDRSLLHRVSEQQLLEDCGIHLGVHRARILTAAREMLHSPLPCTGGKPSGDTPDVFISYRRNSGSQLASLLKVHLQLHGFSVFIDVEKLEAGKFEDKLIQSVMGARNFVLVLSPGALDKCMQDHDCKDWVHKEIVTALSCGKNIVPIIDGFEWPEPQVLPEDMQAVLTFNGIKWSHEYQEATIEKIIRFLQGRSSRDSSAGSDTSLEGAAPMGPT

Row | Structure (SMILES) | remaining NAD
1 | O=C(OC1CN2CCC1CC2)c1ccccc1 (stereo not drawn) | inactive
2 | O=P(O)(O)F | inactive
3 | NC(=O)Nc1ccc([As](=O)(O)O)cc1 | inactive
